# Measurements taken from ChEMBL document CHEMBL4339202, “Benzothiophene derivatives as phosphodiesterase 10A (PDE10A) inhibitors: Hit-to-lead studies” (Bioorg Med Chem Lett, 2019).
# The chains behind the UniProt entries cited, without tags or fusion partners. Where a name states a change or a piece, a line headed by the entry shows the natural chain unless it says otherwise.
# UniProt Q9Y233: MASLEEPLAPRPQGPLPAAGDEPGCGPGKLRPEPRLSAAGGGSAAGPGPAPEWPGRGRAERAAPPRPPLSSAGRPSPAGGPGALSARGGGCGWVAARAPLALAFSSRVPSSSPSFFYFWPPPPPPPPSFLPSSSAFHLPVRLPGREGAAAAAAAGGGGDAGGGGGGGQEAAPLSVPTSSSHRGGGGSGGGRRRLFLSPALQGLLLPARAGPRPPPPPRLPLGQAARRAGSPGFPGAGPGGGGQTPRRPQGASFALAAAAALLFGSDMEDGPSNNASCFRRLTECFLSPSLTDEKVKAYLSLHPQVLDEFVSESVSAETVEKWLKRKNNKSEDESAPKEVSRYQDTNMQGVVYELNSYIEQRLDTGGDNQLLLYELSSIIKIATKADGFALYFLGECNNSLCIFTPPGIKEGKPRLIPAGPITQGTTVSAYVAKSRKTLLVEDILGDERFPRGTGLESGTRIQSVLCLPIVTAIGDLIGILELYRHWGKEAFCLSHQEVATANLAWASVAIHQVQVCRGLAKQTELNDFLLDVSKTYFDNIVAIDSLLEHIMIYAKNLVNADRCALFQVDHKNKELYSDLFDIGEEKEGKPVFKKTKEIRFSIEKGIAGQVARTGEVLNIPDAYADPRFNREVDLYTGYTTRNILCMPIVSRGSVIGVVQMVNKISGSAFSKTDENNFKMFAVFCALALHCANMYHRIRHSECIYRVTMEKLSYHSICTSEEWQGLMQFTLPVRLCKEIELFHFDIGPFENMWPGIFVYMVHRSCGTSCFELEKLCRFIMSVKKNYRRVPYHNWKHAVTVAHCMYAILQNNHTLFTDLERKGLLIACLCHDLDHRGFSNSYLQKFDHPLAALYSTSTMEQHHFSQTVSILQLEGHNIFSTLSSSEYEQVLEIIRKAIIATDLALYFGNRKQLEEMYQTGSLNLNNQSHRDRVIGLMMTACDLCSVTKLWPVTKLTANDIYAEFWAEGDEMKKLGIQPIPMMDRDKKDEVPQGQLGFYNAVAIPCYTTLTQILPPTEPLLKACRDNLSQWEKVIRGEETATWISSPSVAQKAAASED
# Biological target: cAMP and cAMP-inhibited cGMP 3',5'-cyclic phosphodiesterase 10A (Homo sapiens, UniProt Q9Y233)
# Test: Inhibition of human MOLT4 cell-derived PDE10A using [3H]cAMP as substrate measured after 2 hrs in presence of rolipram/milrinone by topcount method
compound,measurement,value
COc1ccc(Cc2nccc3cc(OC)c(OC)cc23)cc1OC [PAPAVERINE],IC50,97 nM
